# The list shows a part of the results, in another mix than the full data. Activity calls are given as the source filed them.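 Rule for the calls: active = activation above the mean of all tested compounds plus 3 SD, computed per campaign excluding outliers beyond control limits (cut at about 13% in these data); inactive = the rest.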
# Chains of the proteins cited; added tags and fusions are not shown.
# UniProt P49862, whole entry: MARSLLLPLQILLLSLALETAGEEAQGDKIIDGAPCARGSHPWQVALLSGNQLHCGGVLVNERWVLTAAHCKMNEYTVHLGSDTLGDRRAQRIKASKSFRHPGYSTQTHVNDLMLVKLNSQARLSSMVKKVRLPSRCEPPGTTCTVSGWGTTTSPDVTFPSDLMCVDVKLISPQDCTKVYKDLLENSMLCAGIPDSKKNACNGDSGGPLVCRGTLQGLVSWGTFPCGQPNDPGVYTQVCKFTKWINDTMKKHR
# Target: Kallikrein-7 (Homo sapiens) (UniProt P49862)
# Test: proKLK7 zymogen activators, primary screen, biochemical, fluorescence intensity (AID 652039)
# Conditions: purified proKLK7, EDANS-DABCYL substrate fluorescence; at 7 µM; hits give high values; 100% is mature enzyme control, 0% vehicle
row,Compound,activation
1,CCC(=O)N(c1ccccc1)C1(COC)CCN(CCc2cccs2)CC1,inactive: 0.36%
2,CCC(=O)N(c1ccccc1)C1(COC)CCN(CCn2nnn(CC)c2=O)CC1,inactive: 0.09%
